## Curated experimental data: logP (octanol/water) values

The octanol-water partition coefficient is given as log10; larger values mean a more lipophilic compound. "–" marks a cell with nothing listed here.

SMILES	name	logP (octanol/water)
Cc1ncc(C[n+]2csc(CCOP(=O)(O)O)c2C)c(N)n1	Monophosphothiamine parent	-3.1
C=CC(=O)OCCCCOC(=O)Oc1ccc(C(=O)c2ccccc2)cc1	–	3.7
OCOCCOCO	1,2-Bis[hydroxymethoxy]ethane	-1.36
CCN(CC)CCCNC(=O)c1ccc([N+](=O)[O-])cc1.Cl	N-[3-(Diethylamino)propyl]-4-nitrobenzamide hydrochloride	-0.99
C=CC(O)C#CC(C)(C)C (configuration not stated)	6,6-dimethylhept-1-en-4-yn-3-ol	2.4
Cc1ccc2c(c1)CC[C@H]([C@H]1CO1)O2	–	2.35
O=C(O)CCCCCCCCC(=O)O	Decanedioic acid	1.5
CSCSC	Methane, bis(methylthio)-	2.31
CC(C/N=C/c1ccccc1O)/N=C/c1ccccc1O (stereo partly drawn)	N,N'-Disalicylidene-1,2-diaminopropane	3.6
CN(C)CCCNCCCN	Dimethyldipropylenetriamine	-0.56
Cc1cccc2c1c([N+](=O)[O-])cc[n+]2[O-]	5-Methyl-4-nitro-1-oxo-1lambda~5~-quinoline	1.36
CCCC[P+](CCCC)(CCCC)CCCC.[Br-]	Tetrabutylphosphonium bromide	-0.04
COc1cccc2c(O)c3c(c(N)c12)C(=O)C1=C(C[C@](O)(C(=O)CO)C[C@@H]1O[C@H]1C[C@@H](N2CCOC[C@@H]2C#N)[C@@H](O)[C@@H](C)O1)C3=O	–	1.97
COC(=O)C(=O)c1ccccc1	Benzeneacetic acid, .alpha.-oxo-, methyl ester	1.9
CC(C)OC(=O)CCCCC(=O)OC(C)C	Diisopropyl adipate	3.389
CC(=O)[O-].CCN(CC)c1ccc(/C=C/C2=[N+](C)c3ccccc3C2(C)C)cc1	–	-2.4
CC(C)(C)c1cc(CCC(=O)O)ccc1O	3-(3-tert-Butyl-4-hydroxyphenyl)propanoic acid	1.04
O=C(O)C1=NN(c2ccc(S(=O)(=O)O)cc2)C(=O)C1/N=N/c1ccc(S(=O)(=O)[O-])cc1.O=C(O)C1=NN(c2ccc(S(=O)(=O)O)cc2)C(=O)C1/N=N/c1ccc(S(=O)(=O)[O-])cc1.O=C(O)C1=NN(c2ccc(S(=O)(=O)O)cc2)C(=O)C1/N=N/c1ccc(S(=O)(=O)[O-])cc1.[Al+3] (stereo partly drawn)	C.I. Pigment Yellow 100	0.028
O=C(OCCOCCOC(=O)c1ccccc1)c1ccccc1	Diethylene glycol dibenzoate	3.2
O=C(Oc1cccc2cccc(OC(=O)c3ccccc3)c12)c1ccccc1	1,8-Naphthylene dibenzoate	4.1
CC(C)(COC(=O)c1ccccc1)COC(=O)c1ccccc1	Neopentyl glycol dibenzoate	4.7
C[C@@H]1C[C@H]2[C@@H]3C[C@H](F)C4=CC(=O)C=C[C@]4(C)[C@@]3(F)[C@@H](O)C[C@]2(C)[C@H]1C(=O)COC(=O)C(C)(C)C	Diflucortolone pivalate	3.86
CC(C)N(C)C	N,N-Dimethylisopropylamine	0.89
C=C(Cl)C(Cl)CCl (configuration not stated)	2,3,4-Trichloro-1-butene	2.4
COc1ccc(NC(=O)c2cc3ccccc3cc2O)cc1	2-Naphthalenecarboxamide, 3-hydroxy-N-(4-methoxyphenyl)-	2.9
CCCCC(CC)C(=O)OC (configuration not stated)	Methyl 2-ethylhexanoate	3.37
C=CC(=C)CCCC(C)(C)OC(C)=O	2-methyl-6-methylideneoct-7-en-2-yl acetate	4.4
Cc1ccc(NS(=O)(=O)c2cc(/N=N/c3c(N)ccc4cc(S(=O)(=O)[O-])cc(O)c34)ccc2Cl)c(C)c1.[Na+]	–	-0.606
CCCOC(=O)c1ccco1	Propyl 2-furoate	2.36
CC1(C)[C@H]2[C@H](C(Br)(Br)Br)OC(=O)[C@H]21	–	2.33
Cc1cccc(CC(C)(C)CO)c1	2,2-Dimethyl-3-(3-methylphenyl)propanol	3.225
COC(=O)c1ccc2c(c1)C(C)(C)C(=CC=C1C(=O)N(c3ccccc3)N=C1C)N2C	–	3.6
CC(C)C(C)N (configuration not stated)	1,2-Dimethylpropylamine	1.1
[N-]=[N+]=C1C=C(S(=O)(=O)Cl)c2ccccc2C1=O	1-Naphthalenesulfonyl chloride, 3-diazo-3,4-dihydro-4-oxo-	1.4
CCCC(O)CC[C@@H]1[C@@H](C)CCCC1(C)C (stereo in doubt)	–	5.8
C=C(C)C(=O)OCCN1CCOC12CCCCC2	–	3.2
Cc1[nH]c(=O)c(C#N)cc1-c1ccncc1	Milrinone	0.4
O=S(=O)([O-])c1ccc([O-])c(/N=N/c2c(S(=O)(=O)[O-])cc3cc(Nc4nc(NCCO)nc(Nc5ccc6c([O-])c(/N=N/c7cc(S(=O)(=O)[O-])ccc7[O-])c(S(=O)(=O)[O-])cc6c5)n4)ccc3c2[O-])c1.[Cu+2].[Cu+2].[Na+].[Na+].[Na+].[Na+]	–	-2.795
C=C(C)C(=O)OCCN1CCOC1	2-(3-Oxazolidinyl)ethyl methacrylate	0.7
O=[N+]([O-])c1ccc(N=Nc2c(O)ccc3ccccc23)c(Cl)c1	D&C Red No. 36	3.45
Cc1c(Nc2cc(S(=O)(=O)[O-])c(N)c3c2C(=O)c2ccccc2C3=O)cc(S(=O)(=O)[O-])cc1Nc1nc(F)nc(F)c1Cl.[Na+].[Na+]	–	-4.2
Cc1ccc(S(=O)(=O)[N-]Cl)cc1.[Na+]	Chloramine-T	-1.3
CNc1nc(OC)ccc1N.Cl.Cl	HC Blue 7	0.83
C[N+](C)([O-])CCCNS(=O)(=O)CCC(F)(F)C(F)(F)C(F)(F)C(F)(F)C(F)(F)C(F)(F)F	–	1.35
Nc1ccc(C2(c3ccc(N)c(Cl)c3)c3ccccc3-c3ccccc32)cc1Cl	4,4'-(9H-Fluorene-9,9-diyl)bis(2-chloroaniline)	4.49
O=C=Nc1cccc2c(N=C=O)cccc12	1,5-Naphthalene diisocyanate	0.91
CC1CCC2CC1C2(C)C (configuration not stated)	Pinane	4.35
COC(=O)CCN(CCC(=O)OC)c1ccc(N=Nc2ccc([N+](=O)[O-])cc2[N+](=O)[O-])c(NC(C)=O)c1	–	4.5

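These are experimental values that the OPERA curators gathered from public databases to train and test their QSAR models. The files give a single number for a compound and property, which may rest on several reports. Method and conditions are not stated for these values. The measured form (salt, isomer or mixture) is not always the one drawn. Some entries may be limits or estimates that an upstream database listed as plain numbers.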

Data: OPERA 2.9 data sets, kmansouri/OPERA on GitHub.